The values below come from patent publication US11957748B2, “Vaccine to pathogenic immune activation cells during infections” (priority 2019, dated 2024).

The subject of test [1] is interferon-induced genes IFIT1, MX1 and OASL in CD4+ T cells. Description: Expression of ISGs in CD4+ T cells (qRT-PCR). It is filed as cell-based, human. Particulars: 10 ng/ml, 4 h. The method, then: FIG. 3. […] CD4^+ T cells were treated with IFNα2a or IFNλ1/2/3/4 (10 ng/ml). After 4 h of stimulation, qRT-PCR were used to examine the mRNA levels of the interferon-induced genes, IFIT1, MX1 and OASL and fold-changes was calculated by 2^−ΔΔCt method as compared with non-treated cell control and using endogenous S14 mRNA level for normalization.
HepG2 cells were seeded at a density of 2×10^5 cells per well in 12-well plates and incubated for 24 h. Then, fresh media was added with the indicated interferons. The cells were incubated for 4 h and then lysed, and RNA was purified using an extraction kit (Qiagen), according to the manufacturer's instructions. Synthesis of cDNA was performed using the PrimeScript RT Reagent kit (TAKARA). Quantitative PCR was carried out using the Power SYBR Green PCR Master Mix (Applied Biosystems) on a LightCycler 480 instrument (Roche). Each reaction was carried out in duplicate in a total volume of 100 μL. Primers were designed to be intron-spanning using Primer3 or Primer Express® v3.0 software (Applied Biosystems). […] For gene induction assays, fold change values were calculated using the AACt method. […]
(Real-time PCR tracks product formation cycle by cycle.)

Test [2] has as its system CD4+ T cells. Briefly: CD38 expression on CD3/CD28 stimulated CD4+ T cells. As to conditions: anti-CD3/anti-CD28 stimulation, increasing dose of IFN. It is filed as cell-based, human. The method, then:
FIG. 5. […] CD38 Median Fluorescence Intensity (MFI) was measured by flow cytometry in CD3^+ 7-AAD-CFSE^+ stimulated CD4^+ T cells at the end of the culture.
T cell activation: CD38 Median Fluorescence Intensity (MFI) of CD38 expression was measured by flow cytometry in CD3^+ 7-AAD-CFSE^+ stimulated CD4^+ T cells at the end of the culture.
CD4^+ T cell polyclonal stimulation: CFSE-stained CD4^+ T cells (5×10^4/well) were cultured in 96 round-bottomed microwells in the presence of ΔCD3-feeder (1×10^5/well) and plate-bound anti-CD3 Ab (2 μg/ml), soluble anti-CD28 mAb (2 μg/ml). CD4^+ T cell proliferation was evaluated with CFSE dilution assays as described above by flow cytometry. Cells were stimulated in presence of different amounts of recombinant cytokines.

The subject of test [3] is CD4+ T cells. Briefly: Allogeneic mixed lymphocyte reaction, CFSE dilution. It is filed as cell-based, human. Particulars: allogeneic poly I:C matured DC, 5 days, 10 ng/ml IFN. The method, then: FIG. 2. Anti-proliferative activity of type I and type III interferons against CD4^+ T cells. […] When indicated, anti-interferon type I receptor antibody was added. The percentage of CFSE dilution was evaluated by flow cytometry.
CFSE staining: CD4^+ T cells were stained with 1 μM CFSE (CellTrace cell proliferation kit; Molecular Probes/Invitrogen) in PBS for 8 min at 37° C. at a concentration of 1.107 cells/ml. The labeling reaction was stopped by washing twice the cell with RPMI-1640 culture medium containing 10% FBS. The cells were then re-suspended at the desired concentration and subsequently used for proliferation assays.
T cell proliferation: T cell proliferation was assessed with CFSE-dilution assays. For CFSE-dilution assay, at coculture completion, stimulated CFSE-labeled CD4^+ T cells were harvested, co-stained with anti-CD3 mAb and 7-AAD, and the percentage of proliferating cells (defined as CFSE low fraction) in gated CD3^+ 7-AAD^− cells was determined by flow cytometry.
Allogeneic mixed lymphocyte reaction: CFSE-stained CD4^+ T cells (5×10^4/well) were cultured in 96 round-bottomed microwells in the presence of allogeneic mature DC. […]
Briefly, CFSE labelled CD4^+ T cells were first stimulated with poly I:C matured allogeneic dendritic cells in presence of different dose of IFNs. At 5 days post activation, the CFSE fluorescence dilution was analyzed.

A further test concerns EMCV. Briefly: Antiviral assay: protection of HepG2 cells from EMCV-induced cytopathogenic effect (MTT). It is filed as cell-based, EMCV (FA strain). Particulars: 10 ng/ml IFN 24 h prior to EMCV challenge, MTT viability. The method, then:
FIG. 1B. Antiviral activity of type I and type III interferons. Antiviral activity of type I and III IFNs against EMCV. IFNα2a or IFNλ1/2/3/4 (10 ng/ml) were added to HepG2 cells 24 h prior to challenge with EMCV. Forty-eight after infection with EMCV, cells were assayed for viability with a bioassay. A570 values were directly proportional to cell viability and therefore antiviral activity of the respective IFNs. IFN-α treatment without viral challenge was used as a baseline of the viability of the cells.
The virus used EMCV (FA strain) was grown on monolayers of Vero cells to complete cytopathic effect or until all cells were affected by the infection as determined by microscopy and prepared by two cycles of freezing and thawing, followed by centrifugation for 30 min at 5,000×g for removal of cellular debris.
Antiviral assays were done on HepG2 cells, which were seeded in DMEM supplemented with 10% FCS at a density of 1.5×10^4 in 96-well plates and left to settle. The cells were incubated with indicated doses of IFNs for 24 h before challenge with EMCV. […] The viability of the cells was analyzed by a bioassay based on the dehydrogenase system; this system in intact cells will convert the substrate, MTT, into formazan (blue), which in turn can be measured spectrophotometrically. […] Subsequently, the absorbance at 570 nm was determined employing the extraction buffer as the blank probe. […]
On the technique in general: Protection from cytopathic effect is a common read-out in antiviral testing.

On to “IFN-α2a: type I interferon, recombinant cytokine used at 10 ng/ml”, for which the “expression of ISGs IFIT1, MX1 and OASL in CD4+ T cells” value in test [1] is reported as “induced”. Further, the “CD38 expression on stimulated CD4+ T cells” value in the test with CD4+ T cells [2] was “able to enhance the expression of CD38”. For the same substance, the “proliferation of allo-activated CD4+ T cells (CFSE dilution)” value in the test on CD4+ T cells [3] is given as “inhibits the proliferation”. In the test with EMCV, the “protection of HepG2 cells challenged with EMCV (antiviral activity)” value is listed as “able to fully protect HepG2 cells challenged with EMCV”.
